Results as given in PMC9495348, “Polyfunctionalized α-Phenyl-tert-butyl(benzyl)nitrones: Multifunctional Antioxidants for Stroke Treatment” (Antioxidants, 2022).

Chains of the proteins cited; added tags and fusions are not shown. Residues count along the entry.
UniProt P06276, 29-602 limits assumed: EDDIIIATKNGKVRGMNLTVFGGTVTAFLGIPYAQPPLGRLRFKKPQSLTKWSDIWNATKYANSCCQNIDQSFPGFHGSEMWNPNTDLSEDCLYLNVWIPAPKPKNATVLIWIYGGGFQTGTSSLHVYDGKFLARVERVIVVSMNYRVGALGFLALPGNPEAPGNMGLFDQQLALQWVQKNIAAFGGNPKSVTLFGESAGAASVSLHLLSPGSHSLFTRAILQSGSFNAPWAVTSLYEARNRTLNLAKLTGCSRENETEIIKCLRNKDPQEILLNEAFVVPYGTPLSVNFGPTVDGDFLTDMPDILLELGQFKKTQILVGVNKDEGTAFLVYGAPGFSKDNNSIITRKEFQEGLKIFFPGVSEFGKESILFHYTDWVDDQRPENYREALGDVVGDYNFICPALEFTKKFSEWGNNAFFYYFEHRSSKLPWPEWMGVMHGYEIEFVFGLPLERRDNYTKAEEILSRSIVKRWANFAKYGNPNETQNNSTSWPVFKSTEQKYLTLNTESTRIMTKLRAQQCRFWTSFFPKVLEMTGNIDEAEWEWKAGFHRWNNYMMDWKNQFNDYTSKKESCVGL

What follows are compounds tested against hBChE (Homo sapiens, UniProt P06276) (assay: hBChE inhibition (DTNB, butyrylthiocholine)). Settings: read-out: hBChE IC50 ± SEM; mean ± SEM of three independent experiments; n.a. = not active (residual activity at 100 µM > 50%).
Type: biochemical

In order of rising IC50:
1. [O-]/[N+](=C\c1ccccc1OCCCN1CCCCC1)Cc1ccccc1 [nitrone 5, (Z)-N-Benzyl-1-(2-(3-(piperidin-1-yl)propoxy)phenyl)methanimine oxide]  3.46 µM
2. CC(C)(C)/[N+]([O-])=C/c1ccccc1OCCCN1CCCCC1 [nitrone 6, (Z)-N-tert-Butyl-1-(2-(3-(piperidin-1-yl)propoxy)phenyl)methanimine oxide]  6.52 µM
3. [O-]/[N+](=C\c1cccc(OCCCN2CCCCC2)c1)Cc1ccccc1 [nitrone 3, (Z)-N-Benzyl-1-(3-(3-(piperidin-1-yl)propoxy)phenyl)methanimine oxide]  16.4 µM
4. CC(C)(C)/[N+]([O-])=C/c1cccc(OCCCN2CCCCC2)c1 [nitrone 4, (Z)-N-tert-Butyl-1-(3-(3-(piperidin-1-yl)propoxy)phenyl)methanimine oxide]  28.9 µM
5. [O-]/[N+](=C\c1ccc(OCCCN2CCCCC2)cc1)Cc1ccccc1 [nitrone 1, (Z)-N-Benzyl-1-(4-(3-(piperidin-1-yl)propoxy)phenyl)methanimine oxide]  45.8 µM
6. C#CCN1CCN(CCCOc2cccc(/C=[N+](\[O-])C(C)(C)C)c2)CC1 [nitrone 10, (Z)-N-tert-Butyl-1-(3-(3-(4-(prop-2-yn-1-yl)piperazin-1-yl)propoxy)phenyl) methanimine oxide]  51 µM
7. C#CCN1CCN(CCCOc2ccccc2/C=[N+](\[O-])Cc2ccccc2)CC1  67.3 µM
